The list shows a part of the results, in another mix than the full data. Some salts or complexes appear as unconnected parts, following the source record. Active and inactive are the calls of the source.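 Rule for the calls: active = percent inhibition above the cutoff of mean plus 3 SD of all tested compounds, set per screening campaign (cut at about 20% in these data); inactive = the rest.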

Protein sequences, listed by entry. Tags and fused reporters are not part of them.
UniProt Q9Y5X4, whole entry: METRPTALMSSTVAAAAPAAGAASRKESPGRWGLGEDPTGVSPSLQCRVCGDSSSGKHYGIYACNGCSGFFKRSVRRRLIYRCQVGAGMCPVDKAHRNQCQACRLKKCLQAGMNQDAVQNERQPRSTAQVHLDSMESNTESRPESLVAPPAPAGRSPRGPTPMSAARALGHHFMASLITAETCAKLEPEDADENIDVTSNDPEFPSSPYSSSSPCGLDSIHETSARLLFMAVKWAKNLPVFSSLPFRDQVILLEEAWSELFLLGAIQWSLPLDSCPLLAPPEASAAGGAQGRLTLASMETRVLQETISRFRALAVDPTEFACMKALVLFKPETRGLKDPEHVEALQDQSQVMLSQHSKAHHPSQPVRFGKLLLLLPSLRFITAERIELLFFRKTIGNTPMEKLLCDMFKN

The test concerns the target Photoreceptor-specific nuclear receptor (Homo sapiens) (UniProt Q9Y5X4). The experiment in a line: inhibitors of NR2E3-RetCOR corepressor binding, primary screen, NR2E3 agonist project, biochemical, TR-FRET, GST-NR2E3, biotin-RetCOR (AID 2300).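 Note: 0% = DMSO wells and 100% = biotin wells as full block of FRET.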 The settings on record: 1536-well, at 4.78 µM, stronger effect = higher value. The gist of the method: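 system = GST-tagged NR2E3 plus biotinylated RetCOR corepressor | input = 1.35 nM GST-NR2E3 | also added = 7 nM biotin-RetCOR | schedule = 5 h incubation at 4 °C | measured by = TR-FRET with europium anti-GST and streptavidin-D2, 340 nm excitation | read-out = percent loss of FRET ratio relative to control wells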
`CN(C)C(=O)c1c([N+](=O)[O-])cc([N+](=O)[O-])cc1[N+](=O)[O-]`: the inhibition of corepressor binding was inactive: -0.19%. In the case of `CP(=O)(Nc1ccc(Cl)cc1)Oc1ccc(F)cc1` (stereo not drawn), the inhibition of corepressor binding was inactive: 0.7%.

In the case of `CC(C)(C)c1ccc(OP(C)(=O)O)cc1`, the inhibition of corepressor binding is inactive: 3.39%.

As for `COc1ccccc1OP(C)(=O)Nc1ccccc1Br` (stereo not drawn), the inhibition of corepressor binding is inactive: -1.46%. Take `CCc1ccc(OP(C)(=O)Nc2cccnc2)cc1` (stereo not drawn): the inhibition of corepressor binding is inactive: 0.26%. On to `CP(=O)(Oc1ccccc1)N1CCOC1=O` (stereo not drawn), for which the inhibition of corepressor binding was inactive: 0.07%. For `O=C(OCCCN1CCCC1)C(O)(c1ccccc1)C1CCCCC1` (stereo not drawn), the inhibition of corepressor binding is inactive: -2.2%.

Take `COc1ccccc1OP(C)(=O)Nc1c(C)n(C)n(-c2ccccc2)c1=O` (stereo not drawn): the inhibition of corepressor binding was inactive: 2.42%. The same measure for `COc1ccc(OP(C)(=O)Nc2ccc(Br)cc2)cc1` (stereo not drawn): inactive: -1.75%; for `CCN(CC)CC(O)COC(=O)C(O)(c1ccccc1)C1CCCCC1` (stereo not drawn): inactive: 2.94%; for `CP(=O)(OC12CC3CC(CC(C3)C1)C2)OC12CC3CC(CC(C3)C1)C2`: inactive: 0.93%.

As to `CCOC(=O)c1ccc(NP(C)(=O)Oc2ccc(Cl)cc2)cc1` (stereo not drawn), the inhibition of corepressor binding was inactive: 2.09%. Take `Nc1ccc2c(ccc3cccnc32)n1.O=[N+]([O-])c1cc([N+](=O)[O-])c(O)c([N+](=O)[O-])c1`: the inhibition of corepressor binding is inactive: 3.95%. Take `CP(=O)(OCCOc1ccccc1)OCCOc1ccccc1`: the inhibition of corepressor binding was inactive: 0%. The same measure for `CP(=O)(Nc1ccc(Cl)cc1Cl)Oc1ccccc1` (stereo not drawn): inactive: 3.06%. The same measure for `Cc1nc2ccc3ccccc3c2o1.O=[N+]([O-])c1cc([N+](=O)[O-])c(O)c([N+](=O)[O-])c1`: inactive: 2.4%. The same measure for `COc1ccc(OP(C)(=O)Nc2ccccc2Br)cc1` (stereo not drawn): inactive: 5.5%; for `COc1ccccc1OP(C)(=O)Nc1ccc(C)c(C)c1` (stereo not drawn): inactive: 3.67%; for `Cc1cc(C)cc(OP(C)(=O)Nc2cccc(C(F)(F)F)c2)c1` (stereo not drawn): inactive: 0.2%. In the case of `CCc1ccc(OP(C)(=O)O)cc1`, the inhibition of corepressor binding was inactive: 1.99%. The same measure for `COc1ccccc1OP(C)(=O)Nc1ccc(C)cc1C` (stereo not drawn): inactive: -0.51%. On to `CP(=O)(Nc1ccccn1)Oc1ccccc1` (stereo not drawn), for which the inhibition of corepressor binding is inactive: -4.9%.

In the case of `O=[N+]([O-])c1cc([N+](=O)[O-])c(Nc2ccccn2)c([N+](=O)[O-])c1`, the inhibition of corepressor binding is inactive: 4.9%. On to `Cc1c(NP(C)(=O)Oc2ccc(C(C)C)cc2)c(=O)n(-c2ccccc2)n1C` (stereo not drawn), for which the inhibition of corepressor binding was inactive: 1.26%.

As for `CN(C)CCOC(=O)C(O)(c1ccccc1)C1CCCC1` (stereo not drawn), the inhibition of corepressor binding is inactive: -0.59%.

As for `COc1ccc(OP(C)(=O)Nc2ccccn2)cc1` (stereo not drawn), the inhibition of corepressor binding is inactive: -3.51%. The same measure for `COc1ccccc1OP(C)(=O)Nc1ccc(Br)cc1` (stereo not drawn): inactive: 1.24%; for `COc1ccc2c(c1O)-c1c(O)c(OC)cc3c1[C@H](C2)[N+](C)(C)CC3.O=[N+]([O-])c1cc([N+](=O)[O-])c([O-])c([N+](=O)[O-])c1[O-]`: inactive: -3.48%. With `O=C(OCCN1CCN(CCOCc2ccccc2)CC1)C(O)(c1ccccc1)c1ccccc1`, the inhibition of corepressor binding was inactive: -1.18%.

Turning to `O=C(OC1CN2CCC1CC2)c1ccc([N+](=O)[O-])cc1` (stereo not drawn), the inhibition of corepressor binding is inactive: 0.82%. As for `CC(C)c1ccc(OP(C)(=O)Nc2ccc(SC(F)(F)F)cc2)cc1` (stereo not drawn), the inhibition of corepressor binding is inactive: -3.93%. The same measure for `CP(=O)(Nc1ccccc1F)Oc1ccccc1` (stereo not drawn): inactive: 0.74%; for `O=[N+]([O-])c1cc([N+](=O)[O-])c(OC2CCCCC2O)c([N+](=O)[O-])c1` (stereo not drawn): inactive: -2.11%; for `CCCCCOc1ccc(NP(C)(=O)Oc2ccc(Cl)cc2Cl)cc1` (stereo not drawn): inactive: 0.75%. Consider `CP(=O)(Nc1ccccc1)Oc1ccc(F)cc1` (stereo not drawn), for which the inhibition of corepressor binding is inactive: 1.02%. The same measure for `CCN(CC)CCCOC(=O)C(O)(c1ccccc1)C1CCCCC1` (stereo not drawn): inactive: 3.77%; for `COc1ccc(OP(C)(=O)Nc2ccc(SC(F)(F)F)cc2)cc1` (stereo not drawn): inactive: -2.86%. Turning to `CCOC(=O)c1ccc(NP(C)(=O)Oc2ccc(F)cc2)cc1` (stereo not drawn), the inhibition of corepressor binding was inactive: -4.13%. The same measure for `O=[N+]([O-])c1cc([N+](=O)[O-])c(NCC2CCS(=O)(=O)C2)c([N+](=O)[O-])c1` (stereo not drawn): inactive: 1.23%; for `COc1ccc(NP(C)(=O)Oc2ccccc2OC)cc1` (stereo not drawn): inactive: -0.69%; for `CN(C)CCOC(=O)C(O)(c1ccccc1)C1CCCCC1` (stereo not drawn): inactive: 1.73%. In the case of `COc1ccc(OP(C)(=O)Nc2cccc(Br)c2)cc1` (stereo not drawn), the inhibition of corepressor binding is inactive: 3.01%.

`Cc1ccccc1NP(C)(=O)Nc1ccccc1C`: the inhibition of corepressor binding was inactive: -1.03%. The same measure for `CP(=O)(Nc1ccc2c(c1)OCCO2)Oc1ccccc1` (stereo not drawn): inactive: -0.3%; for `CCOP(C)(=S)SCC(=O)NC(C)(CC)C(=O)O` (stereo not drawn): inactive: -1.3%. Consider `CP(=O)(Nc1ccc(SC(F)(F)F)cc1)Oc1ccc(F)cc1` (stereo not drawn), for which the inhibition of corepressor binding was inactive: 1.67%. The same measure for `Cc1nc2ccc3ccccc3c2s1.O=[N+]([O-])c1cc([N+](=O)[O-])c(O)c([N+](=O)[O-])c1`: inactive: 7.94%. The same measure for `O=[N+]([O-])c1cc([N+](=O)[O-])c(-c2cnn(-c3ccccc3)c2)c([N+](=O)[O-])c1`: inactive: 4.66%; for `O=[N+]([O-])c1cc([N+](=O)[O-])c(-n2nnc3ccccc32)c([N+](=O)[O-])c1`: inactive: -0.8%; for `CP(=O)(Nc1ccc(SC(F)(F)F)cc1)Oc1ccccc1` (stereo not drawn): inactive: -0.55%. The same measure for `CCCOc1ccc(NP(C)(=O)Oc2ccc(Cl)cc2)cc1` (stereo not drawn): inactive: -1.67%. In the case of `COc1ccccc1OP(C)(=O)Nc1c(C)cccc1C` (stereo not drawn), the inhibition of corepressor binding is inactive: 4.21%.

As to `CN1CCCCC1COC(=O)C1(O)c2ccccc2CCc2ccccc21` (stereo not drawn), the inhibition of corepressor binding is inactive: 4.3%. The same measure for `CCOC(=O)C(CC)C1=NC(C)(C)Cc2ccccc21.O=[N+]([O-])c1cc([N+](=O)[O-])c(O)c([N+](=O)[O-])c1` (stereo not drawn): inactive: -2.5%. The same measure for `O=[N+]([O-])c1cc([N+](=O)[O-])c(Nc2nnnn2CCO)c([N+](=O)[O-])c1`: inactive: -0.76%; for `CC1=C2N=C(C=C3N=C(C(C)=C4[N-][C@@](C)([C@@H]5N=C1[C@](C)(CCC(=O)NC[C@@H](C)OP(=O)([O-])O[C@H]1[C@@H](O)[C@@H](n6cnc7cc(C)c(C)cc76)O[C@@H]1CO)[C@H]5CC(N)=O)[C@@](C)(CC(N)=O)[C@@H]4CCC(N)=O)[C@@](C)(CC(N)=O)[C@@H]3CCC(N)=O)C(C)(C)[C@@H]2CCC(N)=O.[C-]#N.[Co+3]`: inactive: 8.59%; for `CC1=NCCc2c1[nH]c1ccccc21.O=[N+]([O-])c1cc([N+](=O)[O-])c(O)c([N+](=O)[O-])c1`: inactive: -1.44%.

With `O=C(O)c1cccc(Nc2c([N+](=O)[O-])cc([N+](=O)[O-])cc2[N+](=O)[O-])c1`, the inhibition of corepressor binding is inactive: 3.13%.

On to `CP(=O)(Nc1cccc(Br)c1)Oc1ccccc1` (stereo not drawn), for which the inhibition of corepressor binding is inactive: -3.99%. On to `Cc1cc(C)cc(OP(C)(=O)Nc2ccccn2)c1` (stereo not drawn), for which the inhibition of corepressor binding is inactive: 1.59%.

For `Cc1ccc(C)c(NP(C)(=O)Oc2ccccc2)c1` (stereo not drawn), the inhibition of corepressor binding is inactive: -2.45%.

For the compound `Cc1cc(C)cc(OP(C)(=O)Nc2ccc(C)cc2C)c1` (stereo not drawn), the inhibition of corepressor binding is inactive: -1.35%.

On to `CCOC(=O)c1ccc(NP(C)(=O)Oc2cc(C)cc(C)c2)cc1` (stereo not drawn), for which the inhibition of corepressor binding was inactive: 0.43%. The same measure for `COc1ccccc1OP(C)(=O)Nc1cccc(Br)c1` (stereo not drawn): inactive: 0.08%; for `CCN(CC)CCCOC(=O)C(O)(c1ccccc1)c1ccccc1`: inactive: 0.7%. The same measure for `COc1ccc(OP(C)(=O)Nc2cccc(F)c2)cc1` (stereo not drawn): inactive: 0.13%.

Consider `COc1ccccc1OP(C)(=O)Nc1cc(Cl)ccc1C` (stereo not drawn), for which the inhibition of corepressor binding is inactive: 1.67%. Take `Cc1cc(C)cc(OP(C)(N)=O)c1` (stereo not drawn): the inhibition of corepressor binding is inactive: 3.1%. In the case of `CCOC(=O)c1ccc(NP(C)(=O)Oc2ccccc2)cc1` (stereo not drawn), the inhibition of corepressor binding is inactive: -3.24%.

For `Cc1ccc(NP(C)(=O)Oc2ccccc2)c(C)c1` (stereo not drawn), the inhibition of corepressor binding is inactive: -4.06%.

For the compound `COc1ccccc1OP(C)(=O)Nc1ccc(C)cc1` (stereo not drawn), the inhibition of corepressor binding was inactive: -2.46%. Turning to `Cc1cccc(C)c1OP(C)(N)=O` (stereo not drawn), the inhibition of corepressor binding was inactive: 0.54%.

Turning to `CC(C)(C)c1ccc(OP(C)(=O)Nc2ccc(SC(F)(F)F)cc2)cc1` (stereo not drawn), the inhibition of corepressor binding was inactive: -1.42%. Regarding `O=[N+]([O-])c1ccc2c(c1)C=Nc1ccccc1O2`, the inhibition of corepressor binding is inactive: 1.48%.

Consider `O=[N+]([O-])c1cc([N+](=O)[O-])c(Nc2cccnc2)c([N+](=O)[O-])c1`, for which the inhibition of corepressor binding was inactive: 6.41%.

`COc1ccccc1OP(C)(=O)Nc1ccccc1` (stereo not drawn): the inhibition of corepressor binding is inactive: 0.61%. The same measure for `CP(=O)(Nc1ccccc1Br)Oc1ccccc1` (stereo not drawn): inactive: 2.21%. The same measure for `CP(=S)(Nn1cnnc1)Oc1ccccc1` (stereo not drawn): inactive: -3.24%. On to `CP(=O)(Nc1ccccn1)Oc1ccc(Cl)cc1` (stereo not drawn), for which the inhibition of corepressor binding is inactive: 0.45%. As to `CCOP(C)(=S)SCC(=O)NC(C)C(=O)O` (stereo not drawn), the inhibition of corepressor binding was inactive: 1.97%. For the compound `CCOC(=O)c1ccc(NP(C)(=O)Oc2ccc(OC)cc2)cc1` (stereo not drawn), the inhibition of corepressor binding is inactive: 0.4%. The same measure for `O=[N+]([O-])c1cc([N+](=O)[O-])c(O)c([N+](=O)[O-])c1.c1ccc(Oc2ccncc2)cc1`: inactive: 0.36%; for `Cc1cc(C)cc(OP(C)(=O)Nc2ccc(SC(F)(F)F)cc2)c1` (stereo not drawn): inactive: -0.87%; for `CCc1ccc(OP(C)(=O)N2CCN(c3ccc([N+](=O)[O-])cc3)CC2)cc1` (stereo not drawn): inactive: -3.21%. As for `CP(=O)(NC(=O)Nc1ccccc1)Oc1ccccc1` (stereo not drawn), the inhibition of corepressor binding was inactive: -0.26%.

Turning to `CP(=O)(Oc1ccccc1)OC(c1ccccc1)C(F)(F)F` (stereo not drawn), the inhibition of corepressor binding is inactive: 0.54%. As to `Cc1cccc(C)c1OP(C)(=O)Nc1ccc(SC(F)(F)F)cc1` (stereo not drawn), the inhibition of corepressor binding is inactive: 1.01%. The same measure for `CP(=O)(Nc1ccc(SC(F)(F)F)cc1)Oc1ccc(Cl)cc1` (stereo not drawn): inactive: -0.58%.
